Experimental data published in patent US5965524A, “Analogs of viscosin and uses thereof” (Peptide Technologies Corporation, priority 1994, dated 1999).

Tests used:
[1] = Cell toxicity in the HSV-2 assay; conditions: host cells of the HSV-2 assay
Description: (Davis, B., Chapter 55 in Microbiology, Including Immunology and Molecular Genetics, 3rd Ed., Harper & Row, Philadelphia (1980), p. 1064). Particularly preferred host cells are rabbit skin cells or Vero cells. (Grammer, S., et al., J. Immunol. 145:2249-2253 (1990); Gao, W., et al., J. Biol. Chem. 265:20172-20178 (1990)). […] (See, e.g., Groupe, V., et al., Proc. Soc. Exptl. Biol. Med. 78:354-358 (1951); Mitsuya, H., et al., Science 226:172-174 (1984)). Acyclovir, a known antiherpesviral agent (Douglas, R., Chapter 51 in Goodman and Gilman's the Pharmacological Basis of Therapeutics, 8th Ed., G. Gilman et al., eds., Pergamon Press, New York (1980)), was used as a positive control.

[2] = footnote 2 of Table I

Row | Substance | Cell Toxicity [1] | Solubility in water [2]
1 | Deshydroxy Viscosin [Compound 3] | 100 µg/mL | –
2 | Octadecanoyl Viscosin [Compound 4] | > 100 µg/mL | Insoluble in water
